In EP2132185B1, “PYRIMIDINYL-PIPERAZINES USEFUL AS DOPAMINE D3/D2 RECEPTOR LIGANDS” (Richter Gedeon Nyrt., priority 2007, dated 2008):

System: male Wistar rats
Test: Catalepsy test
Type: in vivo, rat
Conditions: oral treatment, minimum effective (cataleptic) dose

Row | Structure (SMILES) | Catalepsy (MED, mg/kg) [mg/kg]
1 | Cc1cc2c(s1)Nc1ccccc1N=C2N1CCN(C)CC1 [Olanzapine, reference compound] | 40
2 | Cc1nc2n(c(=O)c1CCN1CCC(c3noc4cc(F)ccc34)CC1)CCCC2 [Risperidone, reference compound] | 6.0
